This passage reports Km, kcat and kcat/Km results from PMC6255834, “Single point mutations reveal amino acid residues important for Chromobacterium violaceum transaminase activity in the production of unnatural amino acids” (Scientific Reports, 2018).

Holding throughout (assay): purified protein
One data set has as its system C[C@H](N)c1ccccc1. The conditions noted are these: amino donor, pH 7, 45 °C.
The test system of the next data set is CCCCCCC(=O)C(=O)O. The conditions noted are these: amino acceptor, 10 mM 1-PEA as donor, pH 7, 45 °C.
The next data set concerns COC(=O)CC(C)=O. Particulars: amino acceptor, 10 mM 1-PEA as donor, pH 7, 45 °C.
[1] abbreviates: first half-reaction only, no keto acceptor, 5 mM PLP, 1 mg/ml enzyme.
[2] abbreviates: lowest concentration tested 0.1 mM.
Setting [3] is: full reaction with 2.5 mM 2-OOA as acceptor.

Consider “CV_TA (Chromobacterium violaceum DSM30191 transaminase; ω-TA) (Chromobacterium violaceum ATCC 12472; W60C)”, for which, in the data set on C[C@H](N)c1ccccc1 (setting [1]), the Michaelis-Menten constant (Km) came out at 1200 ± 100 µM, the kcat came to 0.06 s⁻¹ and the kcat/Km turned out to be 43.3 M⁻¹ s⁻¹.
For “CV_TA (Chromobacterium violaceum DSM30191 transaminase; ω-TA) (Chromobacterium violaceum ATCC 12472; W60C/Y168F)”, in the data set with C[C@H](N)c1ccccc1 (setting [1]), the Michaelis constant (Km) turned out to be 4400 ± 100 µM, the turnover number (kcat) is 0.0567 s⁻¹ and the kcat/Km was 13.3 M⁻¹ s⁻¹. In the data set on CCCCCCC(=O)C(=O)O (setting [2]), the Michaelis-Menten constant (Km) came out at 40 µM, the kcat came to 0.182 s⁻¹ and the catalytic efficiency (kcat/Km) was determined as 4540 M⁻¹ s⁻¹.
“CV_TA (Chromobacterium violaceum DSM30191 transaminase; ω-TA) (Chromobacterium violaceum ATCC 12472; Y168F)”: the figures for the Km with C[C@H](N)c1ccccc1 (setting [3]), in the data set with COC(=O)CC(C)=O and with CCCCCCC(=O)C(=O)O were 1100 ± 300 µM, 7100 ± 600 µM and 200 ± 70 µM, respectively. For the same substance, the catalytic constant (kcat) with C[C@H](N)c1ccccc1 (setting [3]) worked out at 0.487 s⁻¹; in the data set on COC(=O)CC(C)=O, 0.137 s⁻¹; in the data set on CCCCCCC(=O)C(=O)O it was 0.358 s⁻¹. The specificity constant (kcat/Km) amounted to 428 M⁻¹ s⁻¹ in the data set with C[C@H](N)c1ccccc1 (setting [3]), 20 M⁻¹ s⁻¹ in the data set with COC(=O)CC(C)=O and 2110 M⁻¹ s⁻¹ in the data set on CCCCCCC(=O)C(=O)O.
